Literature values in patent US20170065579A1, “Sustained Release Low Dose Formulations and Uses Thereof” (priority 2015, published 2017).

Settings: in vivo; cited from earlier work

## C=CCN1CC[C@]23c4c5ccc(O)c4O[C@H]2C(=O)CC[C@@]3(O)[C@H]1C5 [naloxone]
  oral bioavailability: poor oral bioavailability
